Amino acid sequences for entries named in this document (tags omitted). A change or cut given only in a name is not applied to a line headed by its entry.
UniProt P41145: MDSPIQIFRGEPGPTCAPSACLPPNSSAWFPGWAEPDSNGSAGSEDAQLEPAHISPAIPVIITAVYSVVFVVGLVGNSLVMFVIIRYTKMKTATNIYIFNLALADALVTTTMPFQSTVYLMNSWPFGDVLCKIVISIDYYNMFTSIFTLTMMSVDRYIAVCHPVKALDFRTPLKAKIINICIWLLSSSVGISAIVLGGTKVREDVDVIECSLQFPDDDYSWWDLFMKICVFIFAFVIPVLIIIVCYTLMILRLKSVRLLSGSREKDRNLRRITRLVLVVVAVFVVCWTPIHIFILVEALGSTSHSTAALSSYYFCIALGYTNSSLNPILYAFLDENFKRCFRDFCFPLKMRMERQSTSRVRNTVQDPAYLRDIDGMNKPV

In US9163030B2 (priority 2012, dated 2015):

What was measured:
KOR [1] = biological target: T1, KOR (Homo sapiens, UniProt P41145); assay: biochemical; assay type: binding
T1 construct: expressed in transfected cells; host or cells: CHO (hKOR-CHO)

KOR [2] = biological target: T1, KOR; assay: [35S]GTP-γ-S binding assay, hKOR-CHO cells; assay type: biochemical; settings: stimulation of [35S]GTP-γ-S binding; no stim = no stimulation

`Oc1ccc2c3c1OC1c4ncc(-c5ccc(Cl)cc5)cc4CC4(OCCCc5ccccc5)C(C2)N(CC2CC2)CCC314` (stereo not drawn) [Compound 17d, 5′-(4-Chlorophenyl)-17-(cyclopropylmethyl)-6,7-didehydro-4,5α-epoxy-3-hydroxy-14-(3-phenylpropoxy)pyrido[2′,3′:6,7]morphinan] was tested, and the Ki (KOR [1]) was 1.82 ± 0.11 nM and the “agonist activity KOR EC50” value (KOR [2]) was “no stim”.
